Data from ChEMBL document CHEMBL1140531, “New functional assay of P-glycoprotein activity using Hoechst 33342” (Bioorg Med Chem, 2007).

Protein sequences, listed by entry. Tags and fused reporters are not part of them.
UniProt P08183, whole entry: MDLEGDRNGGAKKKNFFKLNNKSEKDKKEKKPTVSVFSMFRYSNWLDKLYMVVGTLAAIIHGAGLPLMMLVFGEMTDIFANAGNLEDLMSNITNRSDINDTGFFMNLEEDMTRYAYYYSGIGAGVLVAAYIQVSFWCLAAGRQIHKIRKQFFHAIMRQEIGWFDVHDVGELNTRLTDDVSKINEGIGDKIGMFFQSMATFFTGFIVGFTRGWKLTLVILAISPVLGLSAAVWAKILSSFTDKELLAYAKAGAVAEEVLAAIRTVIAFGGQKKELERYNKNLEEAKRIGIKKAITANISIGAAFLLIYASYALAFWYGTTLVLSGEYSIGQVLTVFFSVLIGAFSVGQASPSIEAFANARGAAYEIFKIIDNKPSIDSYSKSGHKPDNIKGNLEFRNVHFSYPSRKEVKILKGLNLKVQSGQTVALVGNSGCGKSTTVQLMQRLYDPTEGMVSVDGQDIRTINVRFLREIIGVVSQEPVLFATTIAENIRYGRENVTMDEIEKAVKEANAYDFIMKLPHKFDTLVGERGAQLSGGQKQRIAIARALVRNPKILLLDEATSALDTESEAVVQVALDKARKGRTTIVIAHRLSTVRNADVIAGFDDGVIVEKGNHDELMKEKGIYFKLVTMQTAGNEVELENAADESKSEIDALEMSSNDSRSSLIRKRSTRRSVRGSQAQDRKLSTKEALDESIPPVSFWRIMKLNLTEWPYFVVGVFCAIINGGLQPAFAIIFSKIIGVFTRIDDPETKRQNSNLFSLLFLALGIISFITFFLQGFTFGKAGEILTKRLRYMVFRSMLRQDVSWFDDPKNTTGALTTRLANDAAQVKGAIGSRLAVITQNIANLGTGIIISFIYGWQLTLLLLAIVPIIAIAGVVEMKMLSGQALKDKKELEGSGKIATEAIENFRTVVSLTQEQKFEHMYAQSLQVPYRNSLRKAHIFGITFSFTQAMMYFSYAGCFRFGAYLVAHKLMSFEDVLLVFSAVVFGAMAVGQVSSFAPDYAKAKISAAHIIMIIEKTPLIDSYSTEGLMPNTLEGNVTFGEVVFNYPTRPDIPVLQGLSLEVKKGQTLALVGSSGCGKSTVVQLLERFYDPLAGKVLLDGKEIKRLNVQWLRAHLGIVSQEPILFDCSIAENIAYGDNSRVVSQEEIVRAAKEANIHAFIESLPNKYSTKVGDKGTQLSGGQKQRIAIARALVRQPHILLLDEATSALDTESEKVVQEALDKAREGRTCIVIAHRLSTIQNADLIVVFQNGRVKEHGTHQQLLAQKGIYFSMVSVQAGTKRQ

What was measured:
[1] = target: T1, ATP-dependent translocase ABCB1 (Homo sapiens, UniProt P08183); test: Inhibition of P-glycoprotein by Hoechst assay
[2] = target: T1, ATP-dependent translocase ABCB1; test: Inhibition of P-glycoprotein expressed in A2780/ADR cells by calcein AM assay; format: cell-based

Structure (SMILES) | IC50 [1] | IC50 [2]
COC(=O)C1=C(C)NC(C)=C(C(=O)OCCN(C)Cc2ccccc2)C1c1cccc([N+](=O)[O-])c1 (centres undefined) [NICARDIPINE] | 5.13 µM | 4.79 µM
CC(=O)[C@H]1CC[C@H]2[C@@H]3CCC4=CC(=O)CC[C@]4(C)[C@H]3CC[C@]12C [PROGESTERONE] | 49 µM | 47.9 µM
